Assay results: PubChem BioAssay AID1259398 (Fisher Drug Discovery Resource Center, 2018)
This is a selection; strong and weak results do not stand in their true shares. Some of these compounds have results that are not shown, active ones among them. Activity calls are given as the source filed them. Rule as the data show it: active = inhibition above about 40%; inactive = the rest.

Protein sequences, listed by entry. Tags and fused reporters are not part of them.
UniProt Q8N884, whole entry: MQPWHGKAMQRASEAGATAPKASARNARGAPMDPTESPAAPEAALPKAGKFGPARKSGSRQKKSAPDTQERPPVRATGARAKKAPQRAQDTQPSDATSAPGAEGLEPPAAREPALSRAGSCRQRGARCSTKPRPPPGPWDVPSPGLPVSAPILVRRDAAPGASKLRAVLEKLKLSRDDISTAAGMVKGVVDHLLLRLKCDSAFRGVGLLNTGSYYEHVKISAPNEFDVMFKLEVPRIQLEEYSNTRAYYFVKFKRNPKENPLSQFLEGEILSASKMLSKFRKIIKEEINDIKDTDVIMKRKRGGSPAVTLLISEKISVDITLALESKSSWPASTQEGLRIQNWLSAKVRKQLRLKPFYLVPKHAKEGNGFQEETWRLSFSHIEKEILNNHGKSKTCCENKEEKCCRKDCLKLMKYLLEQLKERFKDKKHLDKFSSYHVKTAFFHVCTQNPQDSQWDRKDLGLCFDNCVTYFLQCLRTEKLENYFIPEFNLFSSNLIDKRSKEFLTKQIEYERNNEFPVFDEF

Biological target: Cyclic GMP-AMP synthase (Homo sapiens) (UniProt Q8N884)
Assay: Primary biochemical luminescence assay for human cyclic GMP-AMP synthase inhibitors (AID 1259398);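 also: 0% = vehicle reaction and 100% = reaction without DNA for no activity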
Settings: recombinant h-cGAS, ATP depletion, Kinase-Glo luminescence; at 12.5 µM; hits give high values

| SMILES | inhibition |
| --- | --- |
| CN(C)C1(CNC(=O)c2cc(Br)c(Br)s2)CCCCC1 | inactive: -3.43% |
| N#CC(C#N)=Cc1ccc(Br)cc1 | inactive: -6.33% |
